Source: patent publication US20110262447A1

Assays:
[1] = target: mutant p53 R175H core domain (human) (UniProt P04637); experiment: ELISA, plates coated with recombinant core domain
[2] = target: mutant p53 R175H core domain (human) (UniProt P04637); experiment: ELISA, R175H core domain heated 30 or 60 min at 37 C with or without 0.4 µM TAR1

mAb 1620 (antibody)
O.D. [1]: 0.3 O.D. | fold change of binding in the presence of TAR1 against its absence [2]: 3 fold
